In US20170267738A1 (published 2017):

Target: T1, NYESO1 (peptide NYESO1-001) peptide on HLA-A*02:01 (human)
T1 peptide: SLLMWITQV
Assay: multimer staining

B1: R20P1H7 (TCR, V domains shown)
Valpha: EDQVTQSPEALRLQEGESSSLNCSYTVSGLRGLFWYRQDPGKGPEFLFTLYSAGEEKEKERLKATLTKKESFLHITAPKPEDSATYLCAVQGENSGYSTLTFGKGTMLLVSP
Vbeta: EAQVTQNPRYLITVTGKKLTVTCSQNMNHEYMSWYRQDPGLGLRQIYYSMNVEVTDKGDVPEGYKVSRKEKRNFPLILESPSPNQTSLYFCASSLGPGLAAYNEQFFGPGTRLTVL
- binding result: no recognition

B2: R10P2G12 (TCR, V domains shown)
Valpha: AQKVTQAQTEISVVEKEDVTLDCVYETRDTTYYLFWYKQPPSGELVFLIRRNSFDEQNEISGRYSWNFQKSTSSFNFTITASQVVDSAVYFCALSEGNSGNTPLVFGKGTRLSVIA
Vbeta: DVKVTQSSRYLVKRTGEKVFLECVQDMDHENMFWYRQDPGLGLRLIYFSYDVKMKEKGDIPEGYSVSREKKERFSLILESASTNQTSMYLCASSLSSGSHQETQYFGPGTRLLVL
- binding result: no recognition
